Values quoted from earlier work in patent US20190192527A1, “COMPOSITIONS COMPRISING PIKFYVE INHIBITORS AND METHODS RELATED TO INHIBITION OF RANK SIGNALING” (AI Therapeutics, Inc., priority 2016, published 2019).

Test system: adipocytes
Conditions: read-out: IC50, inhibition of basal and insulin-activated 2-deoxyglucose uptake; cited from earlier work

## Nc1ccc(C(=O)Nc2cccc(-c3nc(N4CCOCC4)c4oc5ncccc5c4n3)c2)cn1 [YM-201636, 6-amino-N-(3-(4-morpholinopyrido[3′,2′: 4,5]furo[3,2-d]pyrimidin-2-yl)phenyl)nicotinamide]
  IC50: 54 nM
